From patent publication US6936585B2, “Corticotropin releasing factor 2 receptor agonists” (priority 2002, dated 2005)

How the values were obtained:
CRF2R = target: T1, CRF2R (Homo sapiens, UniProt Q13324); assay: CRF2R agonist activation (EC50 / Emax), called comparative CRF binding; type: cell-based; conditions: for Emax: read-out: CRF2R Emax
T1 sequence (Q13324 1-411): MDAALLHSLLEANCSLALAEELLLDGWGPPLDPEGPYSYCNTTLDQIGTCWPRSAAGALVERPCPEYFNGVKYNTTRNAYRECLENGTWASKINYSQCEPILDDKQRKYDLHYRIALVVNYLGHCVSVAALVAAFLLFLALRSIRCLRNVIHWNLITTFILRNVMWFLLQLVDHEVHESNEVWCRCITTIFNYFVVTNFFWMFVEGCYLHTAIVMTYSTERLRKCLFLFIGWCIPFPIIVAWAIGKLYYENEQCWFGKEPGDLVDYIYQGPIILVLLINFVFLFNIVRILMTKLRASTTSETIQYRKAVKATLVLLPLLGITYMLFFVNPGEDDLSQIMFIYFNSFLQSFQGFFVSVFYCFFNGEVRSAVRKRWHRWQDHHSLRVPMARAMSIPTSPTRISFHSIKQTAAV
Method in brief: (§1)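 Read-out is Gαs-driven cAMP induction, quantified directly in lysates or through CRE-reporter gene expression, after treating CRF1R- or CRF2R-expressing cells with peptide. Vehicle-treated cells serve as the comparison.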

CRF1R = target: T2, CRF1R (Homo sapiens, UniProt P34998); assay: CRF1R agonist activation (EC50 / Emax), called comparative CRF binding; type: cell-based; conditions: for Emax: read-out: CRF1R Emax; for EC50: CRF1R EC50
T2 sequence (P34998 24-415): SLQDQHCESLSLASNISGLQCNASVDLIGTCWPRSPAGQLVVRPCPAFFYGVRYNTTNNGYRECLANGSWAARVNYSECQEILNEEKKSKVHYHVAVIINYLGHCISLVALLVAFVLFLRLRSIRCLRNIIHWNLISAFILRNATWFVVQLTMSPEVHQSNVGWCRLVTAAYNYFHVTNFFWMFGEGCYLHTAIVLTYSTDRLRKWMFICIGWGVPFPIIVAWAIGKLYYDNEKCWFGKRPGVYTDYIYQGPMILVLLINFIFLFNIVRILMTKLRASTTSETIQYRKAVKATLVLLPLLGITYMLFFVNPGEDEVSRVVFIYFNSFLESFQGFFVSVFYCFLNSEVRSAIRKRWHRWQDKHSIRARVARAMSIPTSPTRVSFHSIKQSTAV
Method in brief: as §1

Row | Structure (SMILES) | Emax (CRF2R) [%] | Emax (CRF1R) [%] | EC50 (CRF2R) [nM] | EC50 (CRF1R) [nM]
1 | CC[C@H](C)[C@H](NC(=O)[C@@H](NC(=O)[C@H](CC(=O)O)NC(=O)[C@H](CC(C)C)NC(=O)[C@H](CC(C)C)NC(=O)[C@H](CC(C)C)NC(=O)[C@H](CCCNC(=N)N)NC(=O)[C@H](CC(N)=O)NC(=O)[C@H](CC(N)=O)NC(=O)[C@H](C)NC(=O)[C@H](C)NC(=O)[C@H](CCC(N)=O)NC(=O)[C@H](CCC(N)=O)NC(=O)[C@H](CCCCN)NC(=O)[C@H](CCC(=O)O)NC(=O)[C@H](CCCCN)NC(=O)[C@H](CCC(=O)O)NC(=O)[C@H](CCC(N)=O)NC(=O)[C@H](CCCCN)NC(=O)[C@H](CCC(=O)O)NC(=O)[C@@H](NC(=O)[C@H](CCC(=O)O)NC(=O)[C@@H](NC(=O)[C@H](CCSC)NC(=O)[C@H](CCCCN)NC(=O)[C@H](CCCNC(=N)N)NC(=O)[C@H](CC(C)C)NC(=O)[C@H](CC(C)C)NC(=O)[C@H](CC(=O)O)NC(=O)[C@@H](NC(=O)[C@@H]1CCCN1C(=O)[C@H](CC(C)C)NC(=O)[C@H](CC(=O)O)NC(=O)[C@@H](NC(=O)[C@H](CO)NC(=O)[C@@H](NC(=O)[C@@H]1CCCN1C(=O)[C@@H]1CCCN1C(=O)CNC(=O)[C@@H]1CCC(=O)N1)[C@@H](C)CC)[C@@H](C)CC)[C@@H](C)CC)[C@@H](C)CC)[C@@H](C)CC)[C@@H](C)O)C(N)=O [compound 28] | 15 | 2 | – | –
2 | CC[C@H](C)[C@H](NC(=O)[C@H](CCC(=O)O)NC(=O)[C@@H](NC(=O)[C@H](CCSC)NC(=O)[C@H](CCCCN)NC(=O)[C@H](CCCNC(=N)N)NC(=O)[C@H](CC(C)C)NC(=O)[C@H](CC(C)C)NC(=O)[C@H](CCC(N)=O)NC(=O)[C@H](Cc1ccccc1)NC(=O)[C@@H]1CCCN1C(=O)[C@H](CC(C)C)NC(=O)[C@H](CC(=O)O)NC(=O)[C@@H](NC(=O)[C@H](CO)NC(=O)[C@@H](NC(=O)[C@@H]1CCCN1C(=O)[C@@H]1CCCN1C(=O)CNC(=O)[C@@H]1CCC(=O)N1)[C@@H](C)CC)[C@@H](C)CC)[C@@H](C)CC)C(=O)N[C@@H](CCC(=O)O)C(=O)N[C@@H](CCCCN)C(=O)N[C@@H](CCC(N)=O)C(=O)N[C@@H](CCC(=O)O)C(=O)N[C@@H](CCCCN)C(=O)N[C@@H](CCC(=O)O)C(=O)N[C@@H](CCCCN)C(=O)N[C@@H](CCC(N)=O)C(=O)N[C@@H](CCC(N)=O)C(=O)N[C@@H](C)C(=O)N[C@@H](C)C(=O)N[C@@H](C)C(=O)N[C@@H](CC(N)=O)C(=O)N[C@@H](CCCNC(=N)N)C(=O)N[C@@H](CC(C)C)C(=O)N[C@@H](CC(C)C)C(=O)N[C@@H](CC(C)C)C(=O)N[C@@H](CC(=O)O)C(=O)N[C@H](C(=O)N[C@H](C(N)=O)C(C)C)[C@@H](C)O [compound 15] | 97 | 86 | – | –
3 | CC[C@H](C)[C@H](NC(=O)[C@@H](NC(=O)[C@H](C)NC(=O)[C@H](CC(C)C)NC(=O)[C@H](CC(C)C)NC(=O)[C@H](CC(C)C)NC(=O)[C@H](C)NC(=O)[C@H](CC(N)=O)NC(=O)[C@H](CC(N)=O)NC(=O)[C@H](C)NC(=O)[C@H](C)NC(=O)[C@H](CCC(N)=O)NC(=O)[C@H](CCC(N)=O)NC(=O)[C@H](CCCCN)NC(=O)[C@H](CCC(=O)O)NC(=O)[C@H](CCCCN)NC(=O)[C@H](CCC(=O)O)NC(=O)[C@H](CCC(N)=O)NC(=O)[C@H](CCCCN)NC(=O)[C@H](CCC(=O)O)NC(=O)[C@@H](NC(=O)[C@H](CCC(=O)O)NC(=O)[C@@H](NC(=O)[C@@H](NC(=O)[C@H](CCCCN)NC(=O)[C@H](CCCNC(=N)N)NC(=O)[C@H](CC(C)C)NC(=O)[C@H](CC(C)C)NC(=O)[C@H](Cc1c[nH]cn1)NC(=O)[C@H](Cc1ccc(O)cc1)NC(=O)[C@@H]1CCCN1C(=O)[C@H](CC(C)C)NC(=O)[C@H](CC(=O)O)NC(=O)[C@@H](NC(=O)[C@H](CO)NC(=O)[C@@H](NC(=O)[C@@H]1CCCN1C(=O)[C@@H]1CCCN1C(=O)CNC(=O)[C@@H]1CCC(=O)N1)[C@@H](C)CC)[C@@H](C)CC)C(C)C)[C@@H](C)CC)[C@@H](C)CC)[C@@H](C)O)C(N)=O [compound 313] | 95 | 87.1 | 11.1 | 704
4 | CC[C@H](C)[C@H](NC(=O)[C@@H](NC(=O)[C@H](CC(=O)O)NC(=O)[C@H](CC(C)C)NC(=O)[C@H](CC(C)C)NC(=O)[C@H](CC(C)C)NC(=O)[C@H](CCCNC(=N)N)NC(=O)[C@H](CC(N)=O)NC(=O)[C@H](CC(N)=O)NC(=O)[C@H](C)NC(=O)[C@H](C)NC(=O)[C@H](CCC(N)=O)NC(=O)[C@H](CCC(N)=O)NC(=O)[C@H](CCCCN)NC(=O)[C@H](CCC(=O)O)NC(=O)[C@H](CCCCN)NC(=O)[C@H](CCC(=O)O)NC(=O)[C@H](CCC(N)=O)NC(=O)[C@H](CCCCN)NC(=O)[C@H](CCC(=O)O)NC(=O)[C@@H](NC(=O)[C@H](CCC(=O)O)NC(=O)[C@@H](NC(=O)[C@H](CCSC)NC(=O)[C@H](CCCCN)NC(=O)[C@H](CCCNC(=N)N)NC(=O)[C@H](CC(C)C)NC(=O)[C@H](CC(C)C)NC(=O)[C@H](Cc1ccc(O)cc1)NC(=O)[C@@H](NC(=O)[C@@H]1CCCN1C(=O)[C@H](CC(C)C)NC(=O)[C@H](CC(=O)O)NC(=O)[C@@H](NC(=O)[C@H](CO)NC(=O)[C@@H](NC(=O)[C@@H]1CCCN1C(=O)[C@@H]1CCCN1C(=O)CNC(=O)[C@@H]1CCC(=O)N1)[C@@H](C)CC)[C@@H](C)CC)[C@@H](C)O)[C@@H](C)CC)[C@@H](C)CC)[C@@H](C)O)C(N)=O [compound 70] | 82 | 8 | 18.3 | > 100
5 | CC[C@H](C)[C@H](NC(=O)[C@H](CCCNC(=N)N)NC(=O)[C@H](C)NC(=O)[C@H](CC(N)=O)NC(=O)[C@@H](NC(=O)[C@@H](NC(=O)[C@H](C)NC(=O)[C@H](CCC(N)=O)NC(=O)[C@H](CCC(N)=O)NC(=O)[C@H](CCCCN)NC(=O)[C@H](CCC(=O)O)NC(=O)[C@H](CCCCN)NC(=O)[C@H](CCC(=O)O)NC(=O)[C@H](CCC(N)=O)NC(=O)[C@H](CCCCN)NC(=O)[C@H](CCC(=O)O)NC(=O)[C@@H](NC(=O)[C@H](CCC(=O)O)NC(=O)[C@@H](NC(=O)[C@H](CC(C)C)NC(=O)[C@@H](NC(=O)[C@H](CCCNC(=N)N)NC(=O)[C@H](CC(C)C)NC(=O)[C@H](CC(C)C)NC(=O)[C@H](Cc1ccc(O)cc1)NC(=O)[C@@H](NC(=O)[C@@H]1CCCN1C(=O)[C@@H](NC(=O)[C@H](CC(=O)O)NC(=O)[C@@H](NC(=O)[C@H](CO)NC(=O)[C@@H](NC(=O)[C@@H]1CCCN1C(=O)[C@@H]1CCCN1C(=O)CNC(=O)[C@@H]1CCC(=O)N1)[C@@H](C)CC)[C@@H](C)CC)C(C)C)[C@@H](C)O)[C@@H](C)CC)[C@@H](C)CC)[C@@H](C)CC)[C@@H](C)O)[C@@H](C)O)C(=O)N[C@@H](CC(C)C)C(=O)N[C@@H](C)C(=O)N[C@@H](CCCNC(=N)N)C(=O)N[C@H](C(N)=O)C(C)C [compound 169] | 93 | 26 | – | –
6 | CC[C@H](C)[C@H](NC(=O)[C@@H](NC(=O)[C@H](CC(=O)O)NC(=O)[C@H](CC(C)C)NC(=O)[C@H](CC(C)C)NC(=O)[C@H](CC(C)C)NC(=O)[C@H](CCCNC(=N)N)NC(=O)[C@H](CC(N)=O)NC(=O)[C@H](CC(N)=O)NC(=O)[C@H](C)NC(=O)[C@H](C)NC(=O)[C@H](CCC(N)=O)NC(=O)[C@H](CCC(N)=O)NC(=O)[C@H](CCCCN)NC(=O)[C@H](CCC(=O)O)NC(=O)[C@H](CCCCN)NC(=O)[C@H](CCC(=O)O)NC(=O)[C@H](CCC(N)=O)NC(=O)[C@H](CCCCN)NC(=O)[C@H](CCC(=O)O)NC(=O)[C@@H](NC(=O)[C@H](CCC(=O)O)NC(=O)[C@@H](NC(=O)[C@H](CCSC)NC(=O)[C@H](CCCCN)NC(=O)[C@H](CCCNC(=N)N)NC(=O)[C@H](CC(C)C)NC(=O)[C@H](CC(C)C)NC(=O)[C@H](CCCCN)NC(=O)[C@@H](NC(=O)[C@@H]1CCCN1C(=O)[C@H](CC(C)C)NC(=O)[C@H](CC(=O)O)NC(=O)[C@@H](NC(=O)[C@H](CO)NC(=O)[C@@H](NC(=O)[C@@H]1CCCN1C(=O)[C@@H]1CCCN1C(=O)CNC(=O)[C@@H]1CCC(=O)N1)[C@@H](C)CC)[C@@H](C)CC)[C@@H](C)CC)[C@@H](C)CC)[C@@H](C)CC)[C@@H](C)O)C(N)=O [compound 34] | 45 | 11 | – | –
